Here are results for one compound from article PMC11477717, “Synthesis of Carborane–Thiazole Conjugates as Tyrosinase and 11β-Hydroxysteroid Dehydrogenase Inhibitors: Antiproliferative Activity and Molecular Docking Studies” (Molecules, 2024).

By UniProt entry, the sequences of proteins in these tests, tags left out. Where a name states a change or a piece, a line headed by the entry shows the natural chain unless it says otherwise.
UniProt P28845: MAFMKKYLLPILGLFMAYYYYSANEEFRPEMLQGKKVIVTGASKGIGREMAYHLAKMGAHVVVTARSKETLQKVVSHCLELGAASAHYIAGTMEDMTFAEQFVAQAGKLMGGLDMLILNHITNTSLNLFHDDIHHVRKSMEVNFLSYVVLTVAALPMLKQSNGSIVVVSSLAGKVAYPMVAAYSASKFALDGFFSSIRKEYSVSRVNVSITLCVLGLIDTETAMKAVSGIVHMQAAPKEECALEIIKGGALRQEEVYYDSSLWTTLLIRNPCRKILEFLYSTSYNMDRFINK

The assay addresses T1, 11β-HSD1 (Homo sapiens, UniProt P28845).
T1 construct: 10 µL of a microsome (1.13 µg/mL 11β-HSD1) solution in PBS; tissue XenoTech Lot No. 1410013; host or cells: pooled human liver microsomes
Description: Inhibition of 11β-HSD1 assay (cortisone to cortisol, microsomes, cortisol ELISA). It is filed as biochemical. The note with it: 5 inhibitor concentrations, three independent determinations; read-out: IC50 ± SD 11β-HSD1. Here is the method: 18-beta-Glycyrrhetinic acid was obtained from Acros Organic; phosphate buffer powder, cortisone, NADPH tetrasodium salt, and NAD Cofactor were obtained from Sigma-Aldrich; dimethylsulfoxide was obtained from POCh Poland; and carbenoxolone (sodium salt) was obtained from Cayman Chemical Company, Ann Arbor, Michigan, USA. Pooled human liver microsomes, mixed gender, 1 mL, 20 mg/mL, Lot No. 1410013, were obtained from XenoTech. Cortisol Elisa Ref DKO001, Lot No. 5148A was obtained from […]. […] L160706125, was obtained from Cloud-Clone Corp. PBS, Lot No. H161008, was obtained from Pan Biotech. Human kidney microsomes, mixed gender, 0.5 mL, 10 mg/mL, Lot No. 1710160, were obtained from XenoTech. […] L191113457, was obtained from Cloud-Clone Corp. […] The microplates were incubated on an orbital shaker for 150 min at 37 °C. […] The quantity of cortisol formed from cortisone was determined using a cortisol ELISA kit, […].
On the technique in general: ELISA stands for enzyme-linked immunosorbent assay.

The IC50 is the concentration that inhibits the measured activity by half.

As for `CC1(C)[C@@H](OC(=O)CCC(=O)O)CC[C@]2(C)[C@H]3C(=O)C=C4[C@@H]5C[C@@](C)(C(=O)O)CC[C@]5(C)CC[C@@]4(C)[C@]3(C)CC[C@@H]12` [Carbenoxolone, carbenoxolone, reference compound], the IC50 was less than 500 nM.
